Reference: ChEMBL document CHEMBL4052827, “Discovery of Tetrahydroisoquinoline-Containing CXCR4 Antagonists with Improved in Vitro ADMET Properties” (J Med Chem, 2018)

Species: Homo sapiens
Assay: Selectivity index, ratio of IC50 for recombinant human CYP2D6 expressed in microsomes of insect cells to IC50 for CXCR4 in human CCRF-CEM cells

## CC(C)(CCN(C[C@H]1Cc2ccccc2CN1)[C@H]1CCCc2cccnc21)CNC1CCOCC1
  Ratio IC50: 171
